Test results published in PubChem BioAssay AID894 (National Center for Advancing Translational Sciences (NCATS), 2007).
The list shows a part of the results, in another mix than the full data. Some of these compounds have results that are not shown, active ones among them. Inconclusive results are not listed. Activity calls are given as the source filed them. Calls come from the whole dose curve; as a rule, active = well fitted inhibition curve with a large enough effect (not every such curve was filed as active); inconclusive = small, poorly fitted or top-dose-only effect, or another doubt; inactive = no such curve, though single readings can be large or run the other way.

Chains of the proteins cited; added tags and fusions are not shown.
UniProt P15428, whole entry: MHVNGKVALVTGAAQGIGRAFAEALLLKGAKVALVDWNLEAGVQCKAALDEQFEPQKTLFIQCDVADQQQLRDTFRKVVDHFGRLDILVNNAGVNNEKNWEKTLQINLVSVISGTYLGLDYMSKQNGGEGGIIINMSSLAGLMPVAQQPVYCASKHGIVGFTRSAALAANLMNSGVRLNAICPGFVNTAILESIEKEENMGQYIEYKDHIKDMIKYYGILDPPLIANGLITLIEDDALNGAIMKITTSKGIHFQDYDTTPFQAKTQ

The molecules below were run against 15-hydroxyprostaglandin dehydrogenase [NAD(+)] (Homo sapiens) (UniProt P15428) (assay: qHTS Assay for Inhibitors of HPGD (15-Hydroxyprostaglandin Dehydrogenase)). Settings: purified HPGD, NADH fluorescence kinetic, PGE2 substrate; hits give low values.
% is set by controls: 0 for no effect and ±100 for the full control effect.
Note: test concentration not given here.

| SMILES | activity change, negative = inhibition |
| --- | --- |
| CC(C)N1C(=O)CC2(CCN(CCOC(=O)C(O)(c3ccccc3)c3ccccc3)CC2)C1=O | inactive: -9.47% |
